scFv variants of Ab-14 (light chain) against a SARS-CoV-2 spike peptide

Values reported by Li et al. 2023, doi:10.1038/s41467-023-39022-2 (FLAb copy).

All variants were tested on one target, the spike HR2 peptide PDVDLGDISGINAS (SARS-CoV-2).

Parent: Ab-14, a human scFv built as VH, three GGGGS repeats, VL. Only the CDRs of the light chain vary.
VH: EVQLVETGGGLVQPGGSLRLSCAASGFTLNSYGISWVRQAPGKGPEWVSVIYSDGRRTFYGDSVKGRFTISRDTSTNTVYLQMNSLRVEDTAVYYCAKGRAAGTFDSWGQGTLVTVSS
VL: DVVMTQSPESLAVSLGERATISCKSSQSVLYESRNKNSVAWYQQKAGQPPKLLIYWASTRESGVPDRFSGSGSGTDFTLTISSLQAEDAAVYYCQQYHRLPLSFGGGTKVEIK

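Phage display of a naive human antibody library on the peptide gave the parent. This is the validation round: designs drawn from the data on random variants, tested in the same kind of assay. Group labels follow the data file (Ctrl: baseline library sampled from a position-specific scoring matrix, with some repeated check sequences; En: ensemble of fine-tuned language models; GP: Gaussian process model; HC: hill climbing; Gen: genetic algorithm; Gibbs: Gibbs sampling; a sequence that several methods proposed may carry one label only). In AlphaSeq, yeast of one mating type display the scFv and yeast of the other type display the target. Binding brings cells together so that they mate, and sequencing counts the barcode pairs among the diploids. Each replicate has its own calibration line, from reference interactions of the BCL2 family. Mating was done six times.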

Variants are written as CDR1, CDR2 and CDR3 of the light chain (limits as in the source). Parent: KSSQSVLYESRNKNSVA, WASTRES, QQYHRLPLS.
Scale: log10 of Kd in nM, estimated from mating counts; low values are strong binders.
Averages over replicates are reported, and they cover detected replicates only.
Where no diploid with the target was found in any replicate, the entry reads "nd": below detection, most likely a poor binder, though not proof of it.
Of ten entries with the parent sequence, four were seen in most replicates (averages 0.34 to 2.37), three in one and three in none, so single entries are noisy.
Background: pairings of all light chain designs with three empty control strains gave a value in 4% of cases (median 2.64, 5th percentile 1.59). Values in that range, when seen in few replicates, are hard to tell from nonspecific mating. The control count says in how many pairings with the empty strains this scFv gave a signal.
The authors averaged sequences with at least three values out of six and counted those with two or fewer as poor binders.
Values of this round are not directly comparable with the first-round values of the same sequences.

| log10 Kd (nM), mean | detected | signal with controls | CDR-L1 | CDR-L2 | CDR-L3 | group |
|---|---|---|---|---|---|---|
| 0.42 | 6 of 6 | 0 of 18 | QIYQAMHTLSQMKNNVA | DVTNRGK | QQYFRLPLS | En_Gen |
| 1.51 | 2 of 6 | 0 of 18 | KLSNWQFDSYGAKESVA | ENEAVSN | QQYSLLPLS | En_Gibbs |
| 0.53 | 6 of 6 | 0 of 18 | KLSQSTPYESRMKNSVA | NASLREQ | QQYHRLPLS | GP_Gibbs |
| 0.14 | 6 of 6 | 1 of 18 | KSSQSVAYESRNKNSVA | DASTRES | QQYHRLPLS | Ctrl |
| 2.41 | 3 of 6 | 0 of 18 | NLRGVEFESAMMGNAVA | DMSAVMA | QQYFMLPLH | En_Gibbs |
| 2.32 | 5 of 6 | 2 of 18 | KLSQSVLYESRMKNSVA | NASTRES | QQYHRLPLM | GP_Gen |
| 0.16 | 6 of 6 | 4 of 18 | KFSQSQPYESRMSNSVA | NASLRMS | QQYHRLPLS | GP_Gibbs |
| 0.49 | 6 of 6 | 2 of 18 | KFMMSGEYQMHEQNNIA | QGNIKFK | QQYFRLPIS | En_Gibbs |
| 0.08 | 6 of 6 | 0 of 18 | KVEQGVLYESRNKNSVA | DASTRES | QQYHRLPLS | GP_HC |
| nd | 0 of 6 | 0 of 18 | KLMQSLSGEPKDWYNVA | EAESATV | QDYARLPLM | En_Gibbs |
| 0.71 | 6 of 6 | 1 of 18 | KSSQSILYESLNKNSVA | HASTRES | QQYHRLPLS | GP_HC |
| 3.19 | 5 of 6 | 1 of 18 | KSSQSVLYESRNKNNVA | WASTREL | QQYHRLPLS | Ctrl |
| 0.68 | 6 of 6 | 1 of 18 | MVNGIMDHLSKQTNNVA | ETTTRNA | QQYDRLPLS | En_Gen |
| 2.93 | 1 of 6 | 0 of 18 | KYFQPVLYESRNKNSVA | WALTRES | QQYHRLPLS | Ctrl |
| 0.69 | 6 of 6 | 0 of 18 | KISQMVRVGATASNSIA | EEVTRAN | QQYHRLPLS | En_Gen |
| -0.34 | 6 of 6 | 2 of 18 | RQSQSVLYESRNKNSVA | GASTRES | QQYHRLPLS | GP_HC |
| -0.30 | 6 of 6 | 3 of 18 | KLQQSMLYESRNVNSVA | DASTRES | QQYHRLPLS | GP_Gibbs |
| 0.13 | 6 of 6 | 0 of 18 | KLSQSVLYESTNLNSVA | WASTRES | QQYHRLPLS | Ctrl |
| 0.30 | 6 of 6 | 0 of 18 | KLSQSEEYESRNKNSVA | NASTRES | QQYHRLPLS | GP_Gen |
| 0.29 | 6 of 6 | 1 of 18 | KSSQSWLYESRVKNSVA | GASTRES | QQYHRLPLS | GP_HC |
| nd | 0 of 6 | 0 of 18 | KSSQSVLYESRNKNSVA | WAYTRES | DQYHRLPLS | Ctrl |
| 0.59 | 6 of 6 | 0 of 18 | KLSQTHGMETKNRNSVA | ELVTRMS | QQYNRLPLS | En_Gen |
| 0.14 | 6 of 6 | 0 of 18 | KLTMITGTEKVHGNNVA | EMETRER | QQYNRLPLA | En_Gen |
| 2.51 | 4 of 6 | 2 of 18 | VSSQSVLYESRNKNSVA | SASTRES | QQYHRLPLS | Ctrl |
| 0.36 | 6 of 6 | 0 of 18 | KSSQNVLYESRNKNSVA | HASQRES | QQYHRLPLS | Ctrl |
| 2.03 | 5 of 6 | 1 of 18 | TLSNMSGLEAVKHNNVA | ENSTREK | QQYDRLPLT | En_Gen |
| 0.33 | 6 of 6 | 2 of 18 | KSSQSELYESRNKNSVA | GASTRES | QAYHRLPLS | GP_HC |
| -0.25 | 6 of 6 | 0 of 18 | KLSDSDLYESRNKNSVA | GASTRES | QQYHRLPLS | GP_Gen |
| 0.71 | 6 of 6 | 1 of 18 | NLSIEMSHYYENRYSIA | DMTVREY | QHYSRIPLV | En_Gibbs |
| 2.23 | 3 of 6 | 1 of 18 | KSKQSRLYENRNTNSVA | WASTRES | QQYHRLPLS | Ctrl |
| 0.67 | 6 of 6 | 1 of 18 | MMSQVTGMGQRHRNNVA | QTSTREE | QQYDRLPLI | En_Gen |
| 1.88 | 6 of 6 | 1 of 18 | KISMLTLYESVNKNSVA | EMSTRPS | QSYHRLPLS | En_HC |
| nd | 0 of 6 | 0 of 18 | KSSTSWLYTSRNKNSVA | WASTRES | NQYHRLPLS | Ctrl |
| 2.09 | 6 of 6 | 1 of 18 | MINMEVGIEDMKWSSVA | SAHVRAF | QQYGRLPFS | En_Gibbs |
| 0.72 | 6 of 6 | 0 of 18 | QLYAVQDTTSKNSNNVA | EQSTREN | QQYHRLPLS | En_HC |
| 0.05 | 6 of 6 | 0 of 18 | KSSQEWLYESRNKNSVA | HASTREQ | QQYHRLPLS | GP_HC |
| -0.10 | 6 of 6 | 0 of 18 | KLQFSCLYESRNKNSVA | DASYRSS | QQYHRLPLS | GP_Gibbs |
| -0.40 | 6 of 6 | 0 of 18 | KISQEVLFESRNKNSVA | DASTRES | QQYHRLPLS | GP_HC |
| 1.30 | 6 of 6 | 1 of 18 | MITEGQLGENKNSSNIA | SQDQKTD | QQYQRLPLI | En_Gibbs |
| 1.22 | 6 of 6 | 1 of 18 | KSQMSWEYESRNSNSVA | HASTREL | QQYHRLPLI | GP_Gibbs |
| 1.16 | 6 of 6 | 0 of 18 | MMSQVTGSGTRHRNNVA | QTSVREP | QQYDRLPLI | En_Gen |
| 1.39 | 6 of 6 | 0 of 18 | KLEGSWLYESRNKNSVA | NASQRES | QQYHRLPLS | GP_Gen |
| -0.48 | 6 of 6 | 0 of 18 | KVSQSEPYESRNKNSVA | EASTRES | QQYHRLPLS | GP_Gen |
| 1.94 | 4 of 6 | 1 of 18 | MISQLYNMGTFAINSVA | QAQTRVE | QQYDRLPLI | En_Gen |
| -0.06 | 6 of 6 | 1 of 18 | KVSQSHLYESRNKNSVA | NASTRMS | QQYHRLPLS | GP_Gen |
| 0.55 | 6 of 6 | 0 of 18 | MVGQGLMGESRAKNSIA | QASLRED | QQYHRLPLI | En_HC |
| -0.15 | 6 of 6 | 2 of 18 | KLSQSDLYESRNINSVA | NASQRCS | QQYHRLPLS | GP_Gibbs |
| 0.30 | 6 of 6 | 1 of 18 | KSMQSVLQDSRNKNSVA | NASTRES | QQYHRLPLS | Ctrl |
| 0.22 | 6 of 6 | 1 of 18 | KALQSVLYESRDKNSVA | HASTRED | QQYHRLPLS | GP_HC |
| 0.31 | 6 of 6 | 0 of 18 | MFALYQDSMGDAKNSIA | DRNTKAH | QQYSKLPLV | En_Gibbs |
| 1.80 | 6 of 6 | 4 of 18 | HFAKQLTSLYNSKQNVA | NASTVMV | QHYNRLPLS | En_Gibbs |
| 0.35 | 6 of 6 | 1 of 18 | KLSNSKWYESRMKNQVA | EASTREM | QQYHRLPLS | GP_Gibbs |
| -0.14 | 6 of 6 | 0 of 18 | KLPQSWPYESRNKNSVA | NASTRES | QQYHRLPLS | GP_Gen |
| 0.28 | 6 of 6 | 0 of 18 | KISQSVLYESRNKNSVA | WASTREA | QQYHRLPLS | Ctrl |
| 0.10 | 6 of 6 | 0 of 18 | KYQQSEPYESRNKNSVA | NASTRMS | QQYHQLPLS | GP_Gibbs |
| 0.21 | 6 of 6 | 1 of 18 | KLPQSTLYESRNPNSVA | WASTRES | QQYHRLPLS | GP_HC |
| -0.13 | 6 of 6 | 0 of 18 | KLSQSYEYESRNKNSVA | SASQREH | QQYHRLPLS | GP_Gibbs |
| 0.54 | 6 of 6 | 3 of 18 | KLSSITGHMQIEKNNVA | EMETREN | QQYDRLPLS | En_Gen |
| 0.72 | 6 of 6 | 2 of 18 | KSGQGVLQESRVKNSVA | GASTRES | QQYHRLPLS | GP_HC |
| 0.16 | 6 of 6 | 1 of 18 | KSPQGVLYESRNKNSVA | GASTRES | QQYHRLPLS | GP_HC |
| 2.24 | 4 of 6 | 0 of 18 | KSSQSVLYESRNKNSVA | WASTREV | QQYHRLPLS | Ctrl |
| -0.45 | 6 of 6 | 0 of 18 | KLSQSWLYESRNKNNVA | NASTRES | QQYHRLPLS | GP_Gen |
| -0.31 | 6 of 6 | 0 of 18 | KSSQSFLYESRNVNSVA | GASTREV | QQYHRLPLS | GP_HC |
| 0.33 | 6 of 6 | 1 of 18 | QIYQAMHTLSQMKDNVA | DVNERGQ | QQYFRLPLS | En_Gen |
| -0.11 | 6 of 6 | 2 of 18 | KISQSELYESRNKNSVA | EASTRMS | QQYHRLPLS | GP_Gen |

Picked from the list: the 7 lowest averages where every replicate gave a value.

| CDR-L1 | CDR-L2 | CDR-L3 | group | log10 Kd (nM), mean | detected | signal with controls |
|---|---|---|---|---|---|---|
| KVSQSEPYESRNKNSVA | EASTRES | QQYHRLPLS | GP_Gen | -0.48 | 6 of 6 | 0 of 18 |
| KLSQSWLYESRNKNNVA | NASTRES | QQYHRLPLS | GP_Gen | -0.45 | 6 of 6 | 0 of 18 |
| KISQEVLFESRNKNSVA | DASTRES | QQYHRLPLS | GP_HC | -0.40 | 6 of 6 | 0 of 18 |
| RQSQSVLYESRNKNSVA | GASTRES | QQYHRLPLS | GP_HC | -0.34 | 6 of 6 | 2 of 18 |
| KSSQSFLYESRNVNSVA | GASTREV | QQYHRLPLS | GP_HC | -0.31 | 6 of 6 | 0 of 18 |
| KLQQSMLYESRNVNSVA | DASTRES | QQYHRLPLS | GP_Gibbs | -0.30 | 6 of 6 | 3 of 18 |
| KLSDSDLYESRNKNSVA | GASTRES | QQYHRLPLS | GP_Gen | -0.25 | 6 of 6 | 0 of 18 |